Biological target: BgtA (Helicobacter mustelae, UniProt D3UIY4)
Experiment: Chemoenzymatic labeling of cell lysates, streptavidin capture and Western blotting
Type: biochemical
Details: rat brain (olfactory bulb) lysates, BgtA + UDP-GalNAz, alkyne-biotin 11, streptavidin capture, immunoblot; in the presence but not absence of BgtA
Procedure: Chemoenzymatic Labeling of Cell Lysates.
The olfactory bulbs of postnatal day 3 rat pups were dissected on ice and lysed in boiling 1% SDS (5 volumes/weight) with sonication until the mixture was homogeneous. Protein was precipitated using methanol/chloroform/water. Briefly, protein was diluted to 200 μL and precipitated by sequential mixing with 600 μL of MeOH, 200 μL of CHCl3 and 450 μL H2O, after which the mixture was centrifuged at 23,000×g for 15 min. Precipitated protein was washed with 450 μL of MeOH and centrifuged at 23,000×g for 10 min. After the protein pellet was allowed to dry briefly, the pellet was re-dissolved at 5 mg/mL in 20 mM HEPES pH 7.9 containing 1% SDS, and diluted 5-fold into a buffer with the following final concentrations: 20 mM HEPES pH 7.9, 50 mM NaCl, 2% NP-40, 5 mM MnCl2. UDP-GalNAz 2 (25 μM; Invitrogen) and BgtA (0.16 mg/mL) were added, and the samples were incubated at 4° C. for 16-20 h. The labeled proteins were precipitated as above and resuspended in 50 mM Tris pH 7.4 containing 1% SDS at 4 mg/mL.
The resuspended proteins were subsequently reacted with alkyne-TAMRA 10 (Invitrogen) or alkyne-biotin 11 (Invitrogen) as per the Click-It™ TAMRA and Biotin Glycoprotein Detection Kit (Invitrogen) instructions, except that EDTA-free Complete™ protease inhibitors were added during the reaction. […]

munc18-1: known Fucα(1-2)Gal glycoprotein in rat brain lysate
chemoenzymatic labeling and detection of glycoprotein: chemoenzymatically labeled and detected

Reference: US9766245B2, “Method of detecting cancer based on glycan biomarkers” (California Institute of Technology, priority 2013, dated 2017)
